# AlphaSeq binding of Ab-91 heavy chain variants to a spike HR2 peptide

Target: peptide PDVDLGDISGINAS, taken from heptad repeat 2 (HR2) of SARS-CoV-2 spike.

Parent: Ab-91, a human scFv built as VL, a (GGGGS)3 linker, VH. Only the CDRs of the heavy chain vary.
VL: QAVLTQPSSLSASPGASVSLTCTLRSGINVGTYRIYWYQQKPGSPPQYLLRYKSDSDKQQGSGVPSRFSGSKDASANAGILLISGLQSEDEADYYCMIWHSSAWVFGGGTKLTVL
VH: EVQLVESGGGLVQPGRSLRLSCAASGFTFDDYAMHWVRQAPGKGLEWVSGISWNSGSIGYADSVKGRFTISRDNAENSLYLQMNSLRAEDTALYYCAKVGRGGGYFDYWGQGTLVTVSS

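Phage display of a naive human antibody library on the peptide gave the parent. The library (AAYL51) carries one to three amino acid substitutions per variant, with no insertions or deletions. Affinity was read by AlphaSeq, a pooled yeast mating assay with surface-displayed partners. The frequency of each diploid, read from paired DNA barcodes, reflects how well the two displayed proteins bind. The ratio of observed to expected reads was calibrated, replicate by replicate, on BCL2-family standards whose Kd was known from biolayer interferometry. There are three technical replicates.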

Substitutions are numbered in sequence along the VH above, starting at 1 (not Kabat). Only single mutants are listed, position by position. Values are apparent Kd, the geometric mean of the replicates that gave a signal; lower means stronger binding. An entry "no signal" has no value in the source: the pair was not observed among the diploids in any replicate. This suggests poor binding but is not conclusive. Empty control strains, which show no peptide, gave a signal in 21% of pairings with library AAYL51; the median was 34 µM and 95% of these signals were weaker than 1.8 µM. No background was subtracted. Parent in this assay: reference entry 72 nM, copy in this library 7.5 nM.

changes | apparent Kd | replicates with signal
R101P | no signal | 0 of 3
R101N | 270 nM | 3 of 3
R101I | no signal | 0 of 3
R101H | 180 nM | 3 of 3
R101V | 460 nM | 3 of 3
R101L | 79 nM | 3 of 3
G102H | 130 nM | 3 of 3
G102I | 21 µM | 1 of 3
G102T | no signal | 0 of 3
G102F | 400 nM | 3 of 3
G102V | no signal | 0 of 3
G102A | 6.5 µM | 2 of 3
G102Q | 1.5 µM | 3 of 3
G102M | 2.0 µM | 2 of 3
G102C | no signal | 0 of 3
G102Y | no signal | 0 of 3
G102N | 82 µM | 1 of 3
G102P | 43 µM | 1 of 3
G102S | 11 nM | 3 of 3
G103Q | 8.6 µM | 1 of 3
G103V | 9.7 nM | 3 of 3
G103L | no signal | 0 of 3
G103S | 26 µM | 2 of 3
G103Y | 20 µM | 3 of 3
G103F | 95 nM | 3 of 3
G103H | no signal | 0 of 3
G103C | 38 µM | 2 of 3
G103T | 20 nM | 3 of 3
G103W | no signal | 0 of 3
G103D | 3.5 µM | 1 of 3
G103M | 150 µM | 1 of 3
G103A | 800 µM | 1 of 3
G104R | 9.7 µM | 1 of 3
G104F | no signal | 0 of 3
G104C | no signal | 0 of 3
G104I | 6.8 µM | 3 of 3
G104L | 14 µM | 2 of 3
G104K | 170 nM | 1 of 3
G104A | no signal | 0 of 3
G104Q | no signal | 0 of 3
G104P | 1.3 µM | 3 of 3
G104H | no signal | 0 of 3
G104Y | no signal | 0 of 3
G104T | 25 nM | 3 of 3
G104V | no signal | 0 of 3
G104M | no signal | 0 of 3
G104S | no signal | 0 of 3
Y105T | 1.3 µM | 2 of 3
Y105C | 11 nM | 3 of 3
Y105P | no signal | 0 of 3
Y105W | 10 nM | 3 of 3
Y105D | 5.4 nM | 3 of 3
Y105E | 30 µM | 1 of 3
Y105R | 380 µM | 1 of 3
Y105I | 680 nM | 3 of 3
Y105V | no signal | 0 of 3
Y105G | 7.6 nM | 3 of 3
Y105H | no signal | 0 of 3
Y105M | 1.9 µM | 2 of 3
Y105A | 560 µM | 1 of 3

A selection of 8 entries from above:

{"changes": "G102V", "apparent Kd": "no signal", "replicates with signal": "0 of 3"}
{"changes": "G104R", "apparent Kd": "9.7 µM", "replicates with signal": "1 of 3"}
{"changes": "Y105T", "apparent Kd": "1.3 µM", "replicates with signal": "2 of 3"}
{"changes": "G102I", "apparent Kd": "21 µM", "replicates with signal": "1 of 3"}
{"changes": "G103A", "apparent Kd": "800 µM", "replicates with signal": "1 of 3"}
{"changes": "G103C", "apparent Kd": "38 µM", "replicates with signal": "2 of 3"}
{"changes": "G102M", "apparent Kd": "2.0 µM", "replicates with signal": "2 of 3"}
{"changes": "G104C", "apparent Kd": "no signal", "replicates with signal": "0 of 3"}

Source: Engelhart et al. 2022 (doi:10.1038/s41597-022-01779-4), MIT Lincoln Laboratory and A-Alpha Bio; data file from the FLAb repository.